31 compounds from patent US12583836B2 (Anaxis Pharma Pty Ltd, priority 2020, dated 2026) can be followed below.

The target of the assay is T1, MLKL (full length) (Homo sapiens, UniProt Q8NB16).
T1 construct: purchased DiscoverX (KINOMEscan service); host or cells: E. coli BL21-derived (T7 phage) or HEK293
T1 sequence (Q8NB16 1-471): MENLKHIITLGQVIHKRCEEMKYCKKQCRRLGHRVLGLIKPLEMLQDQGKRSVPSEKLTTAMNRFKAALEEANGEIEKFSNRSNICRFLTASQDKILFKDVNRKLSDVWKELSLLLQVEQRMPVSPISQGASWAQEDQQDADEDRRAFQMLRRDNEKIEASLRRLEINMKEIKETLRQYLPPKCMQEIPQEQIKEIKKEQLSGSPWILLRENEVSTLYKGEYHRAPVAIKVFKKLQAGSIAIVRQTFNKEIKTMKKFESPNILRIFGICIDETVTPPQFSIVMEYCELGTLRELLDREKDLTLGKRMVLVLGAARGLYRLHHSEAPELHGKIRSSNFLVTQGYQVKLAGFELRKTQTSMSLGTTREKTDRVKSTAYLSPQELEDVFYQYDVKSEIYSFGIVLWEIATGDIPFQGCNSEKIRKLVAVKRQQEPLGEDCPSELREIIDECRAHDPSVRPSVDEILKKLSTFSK
As to the kind of experiment: KINOMEscan binding assay, MLKL. As to conditions: equilibrium dissociation constant, class symbols.
A word on the Kd: it is the concentration at which binding is half-saturated. A low value points to higher affinity. Turning to `CCS(=O)(=O)Nc1ccc(-c2n[nH]c(Nc3cnc4cc(Cl)ccc4n3)c2C(N)=O)cc1` [Compound 65, 5-((6-chloroquinoxalin-2-yl)amino)-3-(4-(ethylsulfonamido)phenyl)-1H-pyrazole-4-carboxamide], the Kd lay within 10 to 1000 nM.

As for `NC(=O)c1c(-c2ccc(NS(=O)(=O)Cc3ccc(Cl)cc3)cc2)n[nH]c1Nc1cnccn1` [Compound 70, 3-(4-(((4-chlorophenyl)methyl)sulfonamido)phenyl)-5-(pyrazin-2-ylamino)-1H-pyrazole-4-carboxamide], the Kd was under 10 nM.

`CC(C)S(=O)(=O)Nc1ccc(-c2n[nH]c(Nc3cnccn3)c2C(N)=O)cc1` [Compound 71, 3-(4-((1-methylethyl)sulfonamido)phenyl)-5-(pyrazin-2-ylamino)-1H-pyrazole-4-carboxamide] returned a Kd of under 10 nM.

Turning to `NC(=O)c1c(-c2ccc(NS(=O)(=O)C3CCCCC3)cc2)n[nH]c1Nc1cnccn1` [Compound 74, 3-(4-(cyclohexanesulfonamido)phenyl)-5-(pyrazin-2-ylamino)-1H-pyrazole-4-carboxamide], the equilibrium dissociation constant (Kd) lay within 10 to 1000 nM.

The compound `NC(=O)c1c(-c2ccc(NS(=O)(=O)Cc3ccccc3)cc2)n[nH]c1Nc1cnccn1` [Compound 77, 3-(4-((phenylmethyl)sulfonamido)phenyl)-5-(pyrazin-2-ylamino)-1H-pyrazole-4-carboxamide] showed a Kd of 10 to 1000 nM.

With `NC(=O)c1c(-c2ccc(NS(=O)(=O)Cc3ccc(OC(F)(F)F)cc3)cc2)n[nH]c1Nc1cnccn1` [Compound 80, 5-(pyrazin-2-ylamino)-3-(4-(((4-(trifluoromethoxy)phenyl)methyl)sulfonamido)phenyl)-1H-pyrazole-4-carboxamide], the dissociation constant Kd was in the range of 10 to 1000 nM.

`NC(=O)c1c(-c2ccc(NS(=O)(=O)Cc3cccc(C(F)(F)F)c3)cc2)n[nH]c1Nc1cnccn1` [Compound 83, 5-[(pyrazin-2-yl)amino]-3-(4-{[3-(trifluoromethyl)phenyl]methanesulfonamido}phenyl)-1H-pyrazole-4-carboxamide] showed a dissociation constant Kd of 10 to 1000 nM.

In turn, `CCS(=O)(=O)Nc1ccc(-c2n[nH]c(Nc3ccc4ccccc4n3)c2C(N)=O)cc1` [Compound 89, 3-(4-(ethylsulfonamido)phenyl)-5-(quinolin-2-ylamino)-1H-pyrazole-4-carboxamide] showed a Kd of under 10 nM.

Regarding `CCS(=O)(=O)Nc1ccc(-c2n[nH]c(Nc3cnc(OC)cn3)c2C(N)=O)cc1` [Compound 90, 3-(4-(ethylsulfonamido)phenyl)-5-((5-methoxypyrazin-2-yl)amino)-1H-pyrazole-4-carboxamide], the dissociation constant (Kd) was under 10 nM.

In turn, `CCS(=O)(=O)Nc1ccc(-c2n[nH]c(Nc3ccc(C(F)(F)F)cn3)c2C(N)=O)cc1` [Compound 93, 3-(4-(ethylsulfonamido)phenyl)-5-((5-(trifluoromethyl)pyridin-2-yl)amino)-1H-pyrazole-4-carboxamide] registered a Kd of under 10 nM.

Consider `CCOc1cccc(Nc2[nH]nc(-c3ccc(NS(=O)(=O)CC)cc3)c2C(N)=O)n1` [Compound 96, 5-((6-ethoxypyridin-2yl)amino)-3-(4-(ethylsulfonamido)phenyl)-1H-pyrazole-4-carboxamide], for which the dissociation constant (Kd) was in the range of 10 to 1000 nM.

The compound `CCS(=O)(=O)Nc1ccc(-c2n[nH]c(Nc3cnn(C)c3)c2C(N)=O)cc1` [Compound 100, 3-(4-(ethylsulfonamido)phenyl)-5-((1-methyl-1H-pyrazol-4-yl)amino)-1H-pyrazole-4-carboxamide] displayed a Kd of under 10 nM.

Compound `CCS(=O)(=O)Nc1ccc(-c2n[nH]c(Nc3ccc(C#N)cc3)c2C(N)=O)cc1` [Compound 102, 5-((4-cyanophenyl)amino)-3-(4-(ethylsulfonamido)phenyl)-1H-pyrazole-4-carboxamide] gave a Kd of under 10 nM.

As for `CCOc1cc(Nc2[nH]nc(-c3ccc(NS(=O)(=O)CC)cc3)c2C(N)=O)ccn1` [Compound 105, 5-((2-ethoxypyridin-4-yl)amino)-3-(4-(ethylsulfonamido)phenyl)-1H-pyrazole-4-carboxamide], the dissociation constant (Kd) is under 10 nM.

For the compound `C#CCS(=O)(=O)Nc1ccc(-c2n[nH]c(Nc3ccnc(OCCOC)c3)c2C(N)=O)cc1` [Compound 109, 5-((2-(2-methoxyethoxy)pyridin-4-yl)amino)-3-(4-(prop-2-yn-1-ylsulfonamido)phenyl)-1H-pyrazole-4-carboxamide], the Kd was under 10 nM.

Consider `CCS(=O)(=O)Nc1ccc(-c2n[nH]c(Nc3ccc(OC)nc3)c2C(N)=O)cc1` [Compound 115, 3-(4-(ethylsulfonamido)phenyl)-5-((6-methoxypyridin-3-yl)amino)-1H-pyrazole-4-carboxamide], for which the dissociation constant (Kd) was under 10 nM.

As to `COCCOc1cc(Nc2[nH]nc(-c3ccc(NS(=O)(=O)CCN(C)C)cc3)c2C(N)=O)ccn1` [Compound 116, 3-(4-((2-(dimethylamino)ethyl)sulfonamido)phenyl)-5-((2-(2-methoxyethoxy)pyridin-4-yl)amino)-1H-pyrazole-4-carboxamide], the equilibrium dissociation constant (Kd) was in the range of 10 to 1000 nM.

The compound `COCCOc1cc(Nc2[nH]nc(-c3ccc(NS(=O)(=O)CCOC)cc3)c2C(N)=O)ccn1` [Compound 120, 5-((2-(2-methoxyethoxy)pyridin-4-yl)amino)-3-(4-((2-methoxyethyl)sulfonamido)phenyl)-1H-pyrazole-4-carboxamide] displayed a Kd of under 10 nM.

Compound `CCS(=O)(=O)Nc1ccc(-c2n[nH]c(Nc3ccccc3)c2C(N)=O)cc1` [Compound 124, 3-(4-(ethylsulfonamido)phenyl)-5-(phenylamino)-1H-pyrazole-4-carboxamide] came in with an equilibrium dissociation constant (Kd) of under 10 nM.

For the compound `CCS(=O)(=O)Nc1ccc(-c2n[nH]c(Nc3ccnc(C)n3)c2C(N)=O)cc1` [Compound 125, 3-(4-(ethylsulfonamido)phenyl)-5-((2-methylpyrimidin-4-yl)amino)-1H-pyrazole-4-carboxamide], the Kd lay in the range of 1000 to 30000 nM.

In the case of `CCS(=O)(=O)Nc1ccc(-c2n[nH]c(Nc3cccc(OCCOC)n3)c2C(N)=O)cc1` [Compound 128, 3-(4-(ethylsulfonamido)phenyl)-5-((6-(2-methoxyethoxy)pyridin-2-yl)amino)-1H-pyrazole-4-carboxamide], the dissociation constant (Kd) was in the range of 1000 to 30000 nM.

On to `NC(=O)c1c(-c2ccc(NS(=O)(=O)CCc3ccccc3)cc2)n[nH]c1Nc1ccccn1` [Compound 130, 3-(4-((2-phenylethyl)sulfonamido)phenyl)-5-(pyridin-2-ylamino)-1H-pyrazole-4-carboxamide], for which the Kd is 1000 to 30000 nM.

Consider `NC(=O)c1c(-c2ccc(NS(=O)(=O)c3ccccc3)cc2)n[nH]c1Nc1ccccn1` [Compound 133, 3-(4-(phenylsulfonamido)phenyl)-5-(pyridin-2-ylamino)-1H-pyrazole-4-carboxamide], for which the Kd was in the range of 1000 to 30000 nM.

In turn, `CCS(=O)(=O)Nc1ccc(-c2n[nH]c(Nc3ccc4ccc(Cl)cc4n3)c2C(N)=O)cc1OCc1ccc(F)cc1` [Compound 138, 5-((7-chloroquinolin-2-yl)amino)-3-(4-(ethylsulfonamido)-3-((4-fluorobenzyl)oxy)phenyl)-1H-pyrazole-4-carboxamide] yielded a Kd of 1000 to 30000 nM.

`NC(=O)c1c(-c2ccc(NS(=O)(=O)CC(F)(F)F)cc2OCc2ccc(F)cc2)n[nH]c1Nc1cccc(C(F)(F)F)n1` [Compound 140, 3-(2-((4-fluorobenzyl)oxy)-4-((2,2,2-trifluoroethyl)sulfonamido)phenyl)-5-((6-(trifluoromethyl)pyridine-2-yl)amino)-1H-pyrazole-4-carboxamide] had a Kd of under 10 nM.

As for `NC(=O)c1c(-c2ccc(NS(=O)(=O)CC(F)(F)F)c(OC3(c4ccc(F)cc4)CC3)c2)n[nH]c1Nc1cnccn1` [Compound 144, 3-(3-(1-(4-fluorophenyl)cyclopropoxy)-4-((2,2,2-trifluoroethyl)sulfonamido)phenyl)-5-(pyrazin-2-ylamino)-1H-pyrazole-4-carboxamide], the Kd was under 10 nM.

Regarding `NC(=O)c1c(-c2ccc(NS(=O)(=O)C(F)F)cc2)n[nH]c1Nc1ccc(C(F)(F)F)cn1` [Compound 145, 3-(4-((difluoromethyl)sulfonamido)phenyl)-5-((5-(trifluoromethyl)pyridine-2-yl)amino)-1H-pyrazole-4-carboxamide], the dissociation constant Kd was under 10 nM.

For the compound `CCS(=O)(=O)Nc1ccc(-c2n[nH]c(Nc3cccc(C(F)(F)F)n3)c2C(N)=O)cc1Oc1ccc(F)cc1` [Compound 149, 3-(4-(ethylsulfonamido)-3-(4-fluorophenoxy)phenyl)-5-((6-(trifluoromethyl)pyridine-2-yl)amino)-1H-pyrazole-4-carboxamide], the equilibrium dissociation constant (Kd) was under 10 nM.

Regarding `CCS(=O)(=O)Nc1ccc(-c2n[nH]c(Nc3cnccn3)c2C(N)=O)cc1OC1(c2ccccc2)CC1` [Compound 152, 3-(4-(ethylsulfonamido)-3-(1-phenylcyclopropoxy)phenyl)-5-(pyrazin-2-ylamino)-1H-pyrazole-4-carboxamide], the Kd was under 10 nM.

Consider `Cc1cnc(Nc2[nH]nc(-c3ccc(NS(=O)(=O)CC(F)(F)F)c(OCc4ccc(Cl)cc4)c3)c2C(N)=O)cn1` [Compound 162, 3-(3-((4-chlorobenzyl)oxy)-4-((2,2,2-trifluoroethyl)sulfonamido)phenyl)-5-((5-methylpyrazin-2-yl)amino)-1H-pyrazole-4-carboxamide], for which the dissociation constant Kd is under 10 nM.

For the compound `C[C@H](Oc1cc(-c2n[nH]c(Nc3cnccn3)c2C(N)=O)ccc1NS(=O)(=O)CC(F)(F)F)c1ccc(F)cc1` [Compound 164, (S)-3-(3-(1-(4-fluorophenyl)ethoxy)-4-((2,2,2-trifluoroethyl)sulfonamido)phenyl)-5-(pyrazin-2-ylamino)-1H-pyrazole-4-carboxamide], the Kd was under 10 nM.
